Measurements reported in patent US20210275698A1, “COMPOUNDS AND COMPOSITIONS FOR TARGETING MACROPHAGES AND OTHER MANNOSE-BINDING C-TYPE LECTIN RECEPTOR HIGH EXPRESSING CELLS AND METHODS OF TREATING AND DIAGNOSIS USING SAME” (priority 2015, published 2021).

Test system: KS tumor cells and CD206+ TAMs
Settings: confocal microscopy of fresh KS organ culture

With “dextran 3-[(2-aminoethyl)thio]propyl 17-carboxy-10,13,16-tris(carboxymethyl)-8-oxo-4-thia-7,10,13,16-tetraazaheptadec-1-yl 3-[[2-[[1-imino-2-(D-mannopyranosylthio)ethyl]amino]ethyl]thio]propyl ether complexes [tilmanocept]” as the substance, how does the “uptake into KS tumor cells and CD206+ TAMs” value read?
The value was “confirmed the uptake”.
